Literature values as cited in publication PMC3694611 (Journal of natural products, 2012).

Target: T1, cathepsin E (Homo sapiens, UniProt P14091)
T1 sequence (P14091 54-396): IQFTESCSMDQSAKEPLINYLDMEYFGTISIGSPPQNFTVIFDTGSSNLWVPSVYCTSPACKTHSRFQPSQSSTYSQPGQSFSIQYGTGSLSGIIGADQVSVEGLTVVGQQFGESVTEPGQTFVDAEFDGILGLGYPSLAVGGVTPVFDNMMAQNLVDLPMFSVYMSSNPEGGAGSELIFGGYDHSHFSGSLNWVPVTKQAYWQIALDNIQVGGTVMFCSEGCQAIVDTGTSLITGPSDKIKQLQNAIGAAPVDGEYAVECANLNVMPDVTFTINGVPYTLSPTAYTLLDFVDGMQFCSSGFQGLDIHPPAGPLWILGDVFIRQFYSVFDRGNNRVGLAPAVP
Details: in words; ref [1c]

Question: With grassystatin A as the substance, how does the “selective inhibition of the protease cathepsin E” value read?
Answer: The value was “selective inhibition”.
